The values that follow come from PMC6278354, “Investigation of New Orexin 2 Receptor Modulators Using In Silico and In Vitro Methods” (Molecules, 2018).

A short description of the data set: in vitro. Particulars: PAMPA, pH 7.4.

Molecule `CCN(C)C(=O)Oc1cccc([C@H](C)N(C)C)c1` [Rivastigmine, reference compound] came in with a Papp of 20 ± 2.1 ×10⁻⁶ cm/s.
